From patent EP4778588A2, “ENZYMATICALLY CLEAVABLE LINKER AND LIGAND-ERIBULIN CONJUGATE CONTAINING SAME” (priority 2022, dated 2024)

Tested on: SK-BR-3 cell line (human breast cancer cells)
Assay: Cell viability test (same method as for Calu-6) in SK-BR-3 cells
Assay type: cell-based
Conditions: average DAR of 2 to 3, read-out: EC/IC50 values for cell viability
Method: Human Calu-6 cells (manufacturer: Procell, product code: CL-327, human lung cancer cells) were resuscitated and seeded into a 96-well culture plate. The culture medium used was DMEM/F12 (manufacturer: Hyclone, product code: SH30023.01), supplemented with 10% FBS (manufacturer: Gibco, product code: 10099141). Each well contained 2,500 cells in 150 µl of medium. The plate was incubated at 37°C in a 5% CO2 incubator. Approximately 20 hours later, 50 µl of medium containing different antibody-drug conjugates were added to each well, setting the final drug concentrations at 0 to 100 nM across 12 dilution gradients (initial concentration: 100 nM; subsequent 5-fold serial dilutions across 10 gradients; last gradient containing no drug, and each sample was tested in duplicate wells). […] After a 2-minute reaction, fluorescence intensity was measured using a Tecan Spark instrument, following the reagent kit's recommended protocol. […] EC/IC50 values were calculated using four-parameter fitting.
Further, following the above examples, antibody-drug conjugates (ADCs) of Trastuzumab and Bemarituzumab conjugated with the linker-toxin MC-VAGGFG-PAB-Eribulin were prepared for validation. […] Activity was measured using the SK-BR-3 cell line (human breast cancer cells) and KATO III cell line (human gastric cancer cells).

Q: “Trastuzumab MC-VAGGFG-PAB-Eribulin: Trastuzumab conjugated with the linker-toxin MC-VAGGFG-PAB-Eribulin” was tested. Which pIC50 did it give?
A: 10.49

pIC50: −log10 of the molar value.
